# System: H1703 Sunitinib resistant line C (H1703 SRc)
# Experiment: cells
# Conditions: Homo sapiens, NCI-H1703, read-out: Sunitinib IC50(μM)
# Experimental: GraphPad Prism 4.01 was used to calculate IC50 values. […] GenoSensor GenoExplorer™ microRNA Expression System (Sanger miRNA Registry version 14 containing probes for 904 mature miRNAs and 450 pre-miRNAs) was used to screen miR expression. Differences in miRs expression between the parent and resistant cells were identified using at test with Benjamini-Hochberg correction and validated by qPCR. A score was calculated for each miRNA to determine whether a miRNA can predict SR.
smiles,measurement,value
"CCN(CC)CCNC(=O)c1c(C)[nH]c(/C=C2\C(=O)Nc3ccc(F)cc32)c1C [Sunitinib, N-[2-(diethylamino)ethyl]-5-[(Z)-(5-fluoro-1,2-dihydro-2-oxo-3H-indol-3-ylidine)methyl]-2,4-dimethyl-1H-pyrrole-3-carboxamide]",IC50,2.09 µM

# — patent publication US20120095030A1, “METHODS AND KITS TO PREDICT THERAPEUTIC OUTCOME OF TYROSINE KINASE INHIBITORS” (THE TRANSLATIONAL GENOMICS RESEARCH INSTITUTE, priority 2009, published 2012)
